According to publication PMC12282101, “Heat shock protein 90 chaperone activity is required for hepatitis A virus replication” (Journal of Virology, 2025):

Assays:
18f-NLuc reporter virus = type: cell-based, Hepatitis A virus
Huh-7.5.1 cells = assay: Cell viability in the chemical screen (Cell TiterGlo); settings: 10 µM compound, 72 h

Substance: Interferon-γ
- Normalized HAV production (18f-NLuc reporter virus): 0.14
- Viability Percent DMSO (Huh-7.5.1 cells): 78 Percent DMSO
